Experimental findings from patent US20090155339A1, “Biocompatible Antimicrobial Filament Material” (AESCULAP AG & CO. KG, priority 2005, published 2009) are described below.

Bounds are passed on as bounds.

Turning to PHMB stearate, the Solubility in chloroform entry (chloroform) is “at most 30 g/l”. The substance also had a Solubility in water (water) below 0.1 mg/mL.
